In ChEMBL document CHEMBL1131838, “8-acenaphthen-1-yl-1-phenyl-1,3,8-triaza-spiro[4.5]decan-4-one derivatives as orphanin FQ receptor agonists” (Bioorg Med Chem Lett, 1999):

What was measured:
Mu-type opioid receptor = Mu-type opioid receptor (Homo sapiens, UniProt P35372); experiment: Displacement of [3H]naloxone from human mu opioid receptor
[1] = biological target: Delta-type opioid receptor (Homo sapiens, UniProt P41143); experiment: Displacement of [3H]-naloxone from Opioid receptor delta 1
Nociceptin receptor = Nociceptin receptor (Homo sapiens, UniProt P41146); experiment: Displacement of [3H]-orphanin FQ from human OrphaninFQ (hOFQ) receptor
[2] = biological target: Kappa-type opioid receptor (Homo sapiens, UniProt P41145); experiment: Displacement of [3H]naloxone from human kappa opioid receptor

Question: How did the Log Ki (Mu-type opioid receptor) turn out when `O=C1NCN(c2ccc(F)cc2)C12CCN(C1Cc3cccc4cccc1c34)CC2` (centres undefined) was run?
Answer: The Log Ki was -7.6.

Question: What about the Log Ki [1] of the same compound?
Answer: The Log Ki was < -6.3.

Question: What about the Log Ki (Nociceptin receptor) of the same compound?
Answer: Its Log Ki is -8.8.

Question: And the Log Ki [2]?
Answer: The Log Ki was -7.2.

Question: What does the source list for `Cc1cccc(N2CNC(=O)C23CCN(C2Cc4cccc5cccc2c45)CC3)c1` (centres undefined)?
Answer: Log Ki (Mu-type opioid receptor): -8; Log Ki [1]: < -6.3; Log Ki (Nociceptin receptor): -8.4; Log Ki [2]: -7.7

Question: With `COc1cccc(N2CNC(=O)C23CCN(C2Cc4cccc5cccc2c45)CC3)c1` (centres undefined) as the compound, how does the Log Ki (Mu-type opioid receptor) read?
Answer: The Log Ki was -7.4.

Question: What about the Log Ki (Nociceptin receptor) of the same compound?
Answer: The Log Ki was -7.8.

Question: With `O=C1NCN(c2cccc(C(F)(F)F)c2)C12CCN(C1Cc3cccc4cccc1c34)CC2` (centres undefined) as the compound, how does the Log Ki (Mu-type opioid receptor) read?
Answer: The Log Ki was -8.1.

Question: What about the Log Ki (Nociceptin receptor) of the same compound?
Answer: The Log Ki was -8.

Question: Which Log Ki (Mu-type opioid receptor) does the source give for `O=C1NCN(c2ccccc2F)C12CCN(C1Cc3cccc4cccc1c34)CC2` (centres undefined) here?
Answer: Its Log Ki is -6.4.

Question: What about the Log Ki (Nociceptin receptor) of the same compound?
Answer: The Log Ki was -7.4.

Question: What about the Log Ki [2] of the same compound?
Answer: Its Log Ki is -6.8.

Question: What does the source list for `O=C1NCN(c2cccc(Cl)c2)C12CCN(C1Cc3cccc4cccc1c34)CC2` (centres undefined)?
Answer: Log Ki (Mu-type opioid receptor): -7.7; Log Ki [1]: -6.8; Log Ki (Nociceptin receptor): -8.9; Log Ki [2]: -7.3

Question: With `COc1ccc(N2CNC(=O)C23CCN(C2Cc4cccc5cccc2c45)CC3)cc1` (centres undefined) as the compound, how does the Log Ki (Nociceptin receptor) read?
Answer: Its Log Ki is -7.

Question: For `Cc1cc(C)cc(N2CNC(=O)C23CCN(C2Cc4cccc5cccc2c45)CC3)c1` (centres undefined), which Log Ki (Mu-type opioid receptor) is on record?
Answer: Its Log Ki is -7.7.

Question: What about the Log Ki (Nociceptin receptor) of the same compound?
Answer: Its Log Ki is -8.

Question: Which results are given for `O=C1NCN(c2cccc(F)c2)C12CCN(C1Cc3cccc4cccc1c34)CC2` (centres undefined)?
Answer: Log Ki (Mu-type opioid receptor): -8.4; Log Ki [1]: -6.8; Log Ki (Nociceptin receptor): -9.5; Log Ki [2]: -7.9

Question: `O=C1NCN(c2ccc(Cl)cc2)C12CCN(C1Cc3cccc4cccc1c34)CC2` (centres undefined) was tested. Which Log Ki (Mu-type opioid receptor) did it give?
Answer: The Log Ki was -7.5.

Question: What about the Log Ki [1] of the same compound?
Answer: The Log Ki was < -6.3.

Question: And the Log Ki (Nociceptin receptor)?
Answer: Its Log Ki is -8.8.

Question: And the Log Ki [2]?
Answer: Its Log Ki is -7.1.

Question: What does the source list for `O=C1NCN(c2cccc(Br)c2)C12CCN(C1Cc3cccc4cccc1c34)CC2` (centres undefined)?
Answer: Log Ki (Mu-type opioid receptor): -7.9; Log Ki [1]: < -6.3; Log Ki (Nociceptin receptor): -8.4; Log Ki [2]: -7.1
